Experimental data taken from PubChem BioAssay (NCI).
Some tests of the compounds listed are not included; inactive here does not mean inactive elsewhere.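 Results reflect a 48-hour exposure of cells in 96-well plates to compound at five concentrations. TGI denotes the concentration required for complete inhibition of growth.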

Experiments:
Assay in all cases: NCI tumour cell line growth inhibition, 48 h
HT29 colon = tested on: HT29 colon
MDA-MB-435 = tested on: MDA-MB-435
IGROV1 ovarian = tested on: IGROV1 ovarian
OVCAR-4 ovarian = tested on: OVCAR-4 ovarian
UACC-257 melanoma = tested on: UACC-257 melanoma
LOX IMVI melanoma = tested on: LOX IMVI melanoma
OVCAR-5 ovarian = tested on: OVCAR-5 ovarian
HL-60(TB) leukemia = tested on: HL-60(TB) leukemia
TK-10 renal = tested on: TK-10 renal
NCI-H460 lung = tested on: NCI-H460 lung
SK-OV-3 ovarian = tested on: SK-OV-3 ovarian
K-562 leukemia = tested on: K-562 leukemia
SNB-19 CNS = tested on: SNB-19 CNS
MALME-3M melanoma = tested on: MALME-3M melanoma
RPMI-8226 leukemia = tested on: RPMI-8226 leukemia
NCI/ADR-RES ovarian = tested on: NCI/ADR-RES ovarian
A549 NSCLC = tested on: A549 NSCLC
SNB-75 CNS = tested on: SNB-75 CNS
A498 renal = tested on: A498 renal
HCT-15 colon = tested on: HCT-15 colon
NCI-H23 lung = tested on: NCI-H23 lung
MCF7 breast = tested on: MCF7 breast
NCI-H322M lung = tested on: NCI-H322M lung
MDA-MB-231 breast = tested on: MDA-MB-231 breast
UACC-62 melanoma = tested on: UACC-62 melanoma
BT-549 breast = tested on: BT-549 breast
SK-MEL-2 melanoma = tested on: SK-MEL-2 melanoma
COLO 205 colon = tested on: COLO 205 colon
SR leukemia = tested on: SR leukemia
HOP-92 NSCLC = tested on: HOP-92 NSCLC
786-0 renal = tested on: 786-0 renal
SF-295 CNS = tested on: SF-295 CNS
NCI-H522 lung = tested on: NCI-H522 lung
KM12 colon = tested on: KM12 colon
MOLT-4 leukemia = tested on: MOLT-4 leukemia
CAKI-1 renal = tested on: CAKI-1 renal
HS 578T breast = tested on: HS 578T breast
MDA-N = tested on: MDA-N
OVCAR-8 ovarian = tested on: OVCAR-8 ovarian
EKVX NSCLC = tested on: EKVX NSCLC
SK-MEL-28 melanoma = tested on: SK-MEL-28 melanoma
M14 melanoma = tested on: M14 melanoma
SF-539 CNS = tested on: SF-539 CNS
PC-3 prostate = tested on: PC-3 prostate
HOP-62 NSCLC = tested on: HOP-62 NSCLC
SW-620 colon = tested on: SW-620 colon
U251 CNS = tested on: U251 CNS
CCRF-CEM leukemia = tested on: CCRF-CEM leukemia
NCI-H226 lung = tested on: NCI-H226 lung
HCT-116 colon = tested on: HCT-116 colon
OVCAR-3 ovarian = tested on: OVCAR-3 ovarian
ACHN renal = tested on: ACHN renal
T-47D breast = tested on: T-47D breast
SK-MEL-5 melanoma = tested on: SK-MEL-5 melanoma
SN12C renal = tested on: SN12C renal

Measured: TGI

CN1CCC(OC(=O)C(O)(c2ccccc2)C2CCCC2)C1 (stereo not given)
> 100 µM: HT29 colon | MDA-MB-435 | IGROV1 ovarian | OVCAR-4 ovarian | UACC-257 melanoma | LOX IMVI melanoma | OVCAR-5 ovarian | HL-60(TB) leukemia | TK-10 renal | NCI-H460 lung | SK-OV-3 ovarian | K-562 leukemia | SNB-19 CNS | MALME-3M melanoma | RPMI-8226 leukemia | NCI/ADR-RES ovarian | A549 NSCLC | SNB-75 CNS | A498 renal | HCT-15 colon | NCI-H23 lung | MCF7 breast | NCI-H322M lung | MDA-MB-231 breast | UACC-62 melanoma | BT-549 breast | SK-MEL-2 melanoma | COLO 205 colon | SR leukemia | HOP-92 NSCLC | 786-0 renal | SF-295 CNS | NCI-H522 lung | KM12 colon | MOLT-4 leukemia | CAKI-1 renal | HS 578T breast | MDA-N | OVCAR-8 ovarian | EKVX NSCLC | SK-MEL-28 melanoma | M14 melanoma | SF-539 CNS | PC-3 prostate | HOP-62 NSCLC | SW-620 colon | U251 CNS | CCRF-CEM leukemia | NCI-H226 lung | HCT-116 colon | OVCAR-3 ovarian | ACHN renal | T-47D breast | SK-MEL-5 melanoma | SN12C renal
